{"source": "patent US10821276B2", "about": "“System and method to locally deliver therapeutic agent to inner ear” (The Trustees of Columbia University in the City of New York, priority 2012, dated 2020)", "key": {"[1]": {"assay": "Permeability of one pore estimated from diffusion coefficient and membrane thickness (P=D/h); 1% area perforation improvement", "conditions": "estimated from diffusion coefficient", "description": "From Fick's first law, diffusion is described by J=−D∇ϕ (1) where J is diffusion flux in mol/m^2*s, D is the diffusion coefficient in m^2/s, and ϕ is the concentration in mol/l. Then from a one-dimensional simplification of the pore\n[formula] This can be further simplified with the gradient is uniform across the pore to obtain\n[formula] where x is the axis through the pore in m, cx is the concentration at both ends in mol/l, and h is the RWM thickness in m. Then from the definition of flux\n[formula] the permeability of the membrane is Flux=−PA(c1−c0) (5) where P=D/h is the permeability in m/s.\nThus the permeability of one pore can be estimated from the diffusion coefficient and the thickness of the membrane (10 μm, guinea pig)."}, "[2]": {"conditions": "intact RWM, previous studies; cited from earlier work"}}, "data": [{"substance": "Gentamicin", "values": [{"measurement": "Estimated Permeability KP PORE", "setting": "[1]", "result": "6.82 10^−5 ms^−1"}, {"measurement": "Permeability KP RWM", "setting": "[2]", "result": "5~35 10^−8 ms^−1"}]}]}
